Experimental data taken from US10414769B2, “5,8-dimethyl-9-phenyl-5,8-dihydro-6H-pyrazolo[3,4-h]quinazolin-2-yl)-(1H-pyrazol-3-yl)-amines as IGF-1R/IR inhibitors” (Boehringer Ingelheim International GmbH, priority 2015, dated 2019).
pEC50: −log10 of the molar value.

Sequences of proteins named here, by UniProt entry; tags and fusion partners are left off. Residues count along the entry.
UniProt O14757, whole entry: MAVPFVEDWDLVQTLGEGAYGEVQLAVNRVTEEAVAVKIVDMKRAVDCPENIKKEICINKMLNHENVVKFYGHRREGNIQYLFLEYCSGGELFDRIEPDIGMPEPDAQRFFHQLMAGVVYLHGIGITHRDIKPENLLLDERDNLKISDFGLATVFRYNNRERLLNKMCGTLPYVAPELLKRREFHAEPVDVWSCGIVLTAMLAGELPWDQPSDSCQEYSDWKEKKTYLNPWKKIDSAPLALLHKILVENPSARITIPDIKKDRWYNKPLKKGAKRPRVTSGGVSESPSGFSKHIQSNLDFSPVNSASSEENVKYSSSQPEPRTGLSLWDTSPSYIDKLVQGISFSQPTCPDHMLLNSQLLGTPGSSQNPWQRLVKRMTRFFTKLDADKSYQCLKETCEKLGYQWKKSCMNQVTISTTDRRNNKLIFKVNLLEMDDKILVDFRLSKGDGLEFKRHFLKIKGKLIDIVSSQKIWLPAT
UniProt P49841, whole entry: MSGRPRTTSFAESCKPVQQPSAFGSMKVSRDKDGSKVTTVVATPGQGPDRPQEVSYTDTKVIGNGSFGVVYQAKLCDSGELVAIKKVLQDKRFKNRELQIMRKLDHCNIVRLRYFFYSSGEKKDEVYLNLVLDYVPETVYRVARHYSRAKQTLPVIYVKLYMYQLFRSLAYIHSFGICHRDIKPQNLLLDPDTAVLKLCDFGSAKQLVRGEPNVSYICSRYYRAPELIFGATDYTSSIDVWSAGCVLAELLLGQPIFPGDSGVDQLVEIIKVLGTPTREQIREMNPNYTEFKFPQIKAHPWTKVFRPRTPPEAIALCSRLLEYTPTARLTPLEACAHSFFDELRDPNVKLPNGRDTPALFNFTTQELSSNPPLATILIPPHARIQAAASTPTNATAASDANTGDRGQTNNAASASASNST
UniProt P78362, whole entry: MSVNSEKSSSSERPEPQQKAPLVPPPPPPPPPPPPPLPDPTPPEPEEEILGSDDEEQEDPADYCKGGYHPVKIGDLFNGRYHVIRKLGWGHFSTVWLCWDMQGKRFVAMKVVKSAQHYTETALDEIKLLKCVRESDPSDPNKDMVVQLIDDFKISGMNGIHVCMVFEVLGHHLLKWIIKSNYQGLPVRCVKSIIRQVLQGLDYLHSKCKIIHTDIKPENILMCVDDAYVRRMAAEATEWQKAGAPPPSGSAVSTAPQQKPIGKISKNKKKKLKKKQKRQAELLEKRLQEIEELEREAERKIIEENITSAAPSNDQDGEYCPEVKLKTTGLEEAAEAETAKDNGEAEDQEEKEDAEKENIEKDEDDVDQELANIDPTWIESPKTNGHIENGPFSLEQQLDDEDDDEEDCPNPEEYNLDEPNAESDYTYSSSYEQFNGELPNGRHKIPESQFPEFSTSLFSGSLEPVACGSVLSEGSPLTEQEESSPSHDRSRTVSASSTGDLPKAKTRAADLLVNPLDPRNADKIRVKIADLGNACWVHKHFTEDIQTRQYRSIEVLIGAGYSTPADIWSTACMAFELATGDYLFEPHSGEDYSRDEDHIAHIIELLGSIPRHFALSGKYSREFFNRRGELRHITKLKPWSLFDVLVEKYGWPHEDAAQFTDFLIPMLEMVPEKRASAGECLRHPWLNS
UniProt P49137, whole entry: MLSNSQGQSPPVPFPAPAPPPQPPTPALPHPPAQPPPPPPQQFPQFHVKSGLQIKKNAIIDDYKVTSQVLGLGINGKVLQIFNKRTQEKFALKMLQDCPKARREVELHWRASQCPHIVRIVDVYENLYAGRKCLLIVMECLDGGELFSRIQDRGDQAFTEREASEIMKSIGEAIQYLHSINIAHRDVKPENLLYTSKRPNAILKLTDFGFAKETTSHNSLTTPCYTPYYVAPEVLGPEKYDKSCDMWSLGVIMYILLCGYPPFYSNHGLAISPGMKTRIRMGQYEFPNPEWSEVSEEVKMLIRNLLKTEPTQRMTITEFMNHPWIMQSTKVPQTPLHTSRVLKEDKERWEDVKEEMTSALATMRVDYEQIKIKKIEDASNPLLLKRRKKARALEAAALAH
UniProt Q13131, whole entry: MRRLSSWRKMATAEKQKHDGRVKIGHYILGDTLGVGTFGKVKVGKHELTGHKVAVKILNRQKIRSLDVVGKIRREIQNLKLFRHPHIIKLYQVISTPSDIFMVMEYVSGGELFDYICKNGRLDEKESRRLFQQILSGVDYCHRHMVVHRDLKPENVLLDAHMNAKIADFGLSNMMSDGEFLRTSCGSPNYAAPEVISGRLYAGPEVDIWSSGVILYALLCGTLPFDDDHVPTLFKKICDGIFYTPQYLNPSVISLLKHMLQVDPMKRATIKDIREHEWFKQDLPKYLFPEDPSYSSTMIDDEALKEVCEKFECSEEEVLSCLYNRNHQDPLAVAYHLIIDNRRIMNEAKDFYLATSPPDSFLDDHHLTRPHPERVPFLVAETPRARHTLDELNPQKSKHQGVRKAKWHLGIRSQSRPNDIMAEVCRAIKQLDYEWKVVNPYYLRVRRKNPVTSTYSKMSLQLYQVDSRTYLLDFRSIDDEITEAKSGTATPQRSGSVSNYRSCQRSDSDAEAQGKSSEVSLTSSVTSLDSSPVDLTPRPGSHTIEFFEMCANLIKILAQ
UniProt P00533, 25-1210 limits assumed: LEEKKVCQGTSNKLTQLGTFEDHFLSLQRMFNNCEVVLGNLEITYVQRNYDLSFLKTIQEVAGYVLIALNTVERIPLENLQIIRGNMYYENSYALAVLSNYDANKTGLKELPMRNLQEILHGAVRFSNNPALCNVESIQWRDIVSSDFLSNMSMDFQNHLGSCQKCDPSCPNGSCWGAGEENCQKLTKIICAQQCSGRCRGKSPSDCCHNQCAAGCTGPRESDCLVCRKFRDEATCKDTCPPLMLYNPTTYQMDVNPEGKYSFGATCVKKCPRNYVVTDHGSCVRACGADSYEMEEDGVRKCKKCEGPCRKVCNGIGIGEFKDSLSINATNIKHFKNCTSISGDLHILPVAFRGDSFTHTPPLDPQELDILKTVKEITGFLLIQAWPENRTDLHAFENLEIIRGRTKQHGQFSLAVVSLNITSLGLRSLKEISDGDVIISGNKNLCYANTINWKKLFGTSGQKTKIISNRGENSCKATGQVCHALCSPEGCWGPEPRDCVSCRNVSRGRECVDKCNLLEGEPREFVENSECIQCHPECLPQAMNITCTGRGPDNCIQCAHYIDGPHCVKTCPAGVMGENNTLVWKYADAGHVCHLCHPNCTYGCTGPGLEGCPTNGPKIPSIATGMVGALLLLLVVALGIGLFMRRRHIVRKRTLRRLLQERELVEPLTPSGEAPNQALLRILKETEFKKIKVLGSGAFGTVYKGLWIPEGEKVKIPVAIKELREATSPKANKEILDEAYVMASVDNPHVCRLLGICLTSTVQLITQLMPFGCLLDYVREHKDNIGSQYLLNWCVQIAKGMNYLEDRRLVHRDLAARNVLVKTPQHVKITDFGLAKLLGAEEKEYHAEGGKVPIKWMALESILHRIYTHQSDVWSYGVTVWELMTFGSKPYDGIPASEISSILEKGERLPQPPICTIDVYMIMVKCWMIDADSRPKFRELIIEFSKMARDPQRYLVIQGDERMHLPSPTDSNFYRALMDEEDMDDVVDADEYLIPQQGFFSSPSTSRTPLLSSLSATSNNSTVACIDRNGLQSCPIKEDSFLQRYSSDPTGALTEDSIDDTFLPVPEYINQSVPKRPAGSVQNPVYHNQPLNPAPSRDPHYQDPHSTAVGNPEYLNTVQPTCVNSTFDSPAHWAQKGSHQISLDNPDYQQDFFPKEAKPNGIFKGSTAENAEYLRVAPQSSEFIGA
UniProt P31751, whole entry: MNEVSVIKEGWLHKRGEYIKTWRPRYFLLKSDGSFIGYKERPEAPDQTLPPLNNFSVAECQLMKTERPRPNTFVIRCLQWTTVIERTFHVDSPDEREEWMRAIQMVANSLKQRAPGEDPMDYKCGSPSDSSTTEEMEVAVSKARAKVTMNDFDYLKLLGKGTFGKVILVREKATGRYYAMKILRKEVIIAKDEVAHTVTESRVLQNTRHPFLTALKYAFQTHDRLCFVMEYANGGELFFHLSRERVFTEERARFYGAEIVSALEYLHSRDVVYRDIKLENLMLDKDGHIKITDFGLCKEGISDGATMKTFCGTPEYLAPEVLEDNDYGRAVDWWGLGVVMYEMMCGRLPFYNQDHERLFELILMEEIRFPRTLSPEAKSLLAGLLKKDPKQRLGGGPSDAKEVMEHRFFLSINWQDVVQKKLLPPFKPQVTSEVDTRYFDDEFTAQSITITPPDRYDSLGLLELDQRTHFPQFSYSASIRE
UniProt O15530, whole entry: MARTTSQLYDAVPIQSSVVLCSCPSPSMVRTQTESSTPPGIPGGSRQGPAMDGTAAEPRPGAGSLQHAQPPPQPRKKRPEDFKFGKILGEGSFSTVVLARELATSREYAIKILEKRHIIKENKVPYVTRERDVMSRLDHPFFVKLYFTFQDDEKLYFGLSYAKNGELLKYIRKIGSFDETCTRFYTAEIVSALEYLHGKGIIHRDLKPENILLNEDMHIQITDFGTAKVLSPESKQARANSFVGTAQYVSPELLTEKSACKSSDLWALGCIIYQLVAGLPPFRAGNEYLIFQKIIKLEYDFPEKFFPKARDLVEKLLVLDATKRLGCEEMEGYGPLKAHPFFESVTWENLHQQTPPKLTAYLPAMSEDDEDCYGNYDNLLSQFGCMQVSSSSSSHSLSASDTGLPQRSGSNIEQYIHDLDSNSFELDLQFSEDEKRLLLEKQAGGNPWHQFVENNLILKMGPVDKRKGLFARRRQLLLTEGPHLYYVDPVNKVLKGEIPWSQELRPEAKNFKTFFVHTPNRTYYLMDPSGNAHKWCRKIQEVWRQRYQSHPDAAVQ
UniProt P45984, whole entry: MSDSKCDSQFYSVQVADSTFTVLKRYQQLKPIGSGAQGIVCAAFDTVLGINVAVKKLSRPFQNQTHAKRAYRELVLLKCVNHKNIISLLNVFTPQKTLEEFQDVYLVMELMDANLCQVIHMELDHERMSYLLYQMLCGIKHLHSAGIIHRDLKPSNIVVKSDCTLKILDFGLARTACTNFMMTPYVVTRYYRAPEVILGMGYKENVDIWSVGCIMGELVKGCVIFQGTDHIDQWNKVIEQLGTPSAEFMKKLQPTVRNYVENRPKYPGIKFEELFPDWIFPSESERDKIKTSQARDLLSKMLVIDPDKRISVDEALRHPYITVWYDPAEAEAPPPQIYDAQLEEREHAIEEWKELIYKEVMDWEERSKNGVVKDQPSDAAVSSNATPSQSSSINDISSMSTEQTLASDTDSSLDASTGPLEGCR
UniProt Q02750, whole entry: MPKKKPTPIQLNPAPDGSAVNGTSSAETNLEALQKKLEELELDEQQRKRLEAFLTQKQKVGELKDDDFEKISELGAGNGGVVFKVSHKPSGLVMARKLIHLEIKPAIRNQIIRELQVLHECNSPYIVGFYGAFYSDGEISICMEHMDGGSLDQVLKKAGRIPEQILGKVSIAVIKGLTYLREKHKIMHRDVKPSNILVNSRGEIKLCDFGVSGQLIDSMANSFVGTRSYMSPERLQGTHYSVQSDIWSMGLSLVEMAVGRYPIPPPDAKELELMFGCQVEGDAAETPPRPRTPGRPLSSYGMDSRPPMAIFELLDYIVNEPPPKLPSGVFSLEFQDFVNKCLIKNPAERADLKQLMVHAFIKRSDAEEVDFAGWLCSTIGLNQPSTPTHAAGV
UniProt O96013, whole entry: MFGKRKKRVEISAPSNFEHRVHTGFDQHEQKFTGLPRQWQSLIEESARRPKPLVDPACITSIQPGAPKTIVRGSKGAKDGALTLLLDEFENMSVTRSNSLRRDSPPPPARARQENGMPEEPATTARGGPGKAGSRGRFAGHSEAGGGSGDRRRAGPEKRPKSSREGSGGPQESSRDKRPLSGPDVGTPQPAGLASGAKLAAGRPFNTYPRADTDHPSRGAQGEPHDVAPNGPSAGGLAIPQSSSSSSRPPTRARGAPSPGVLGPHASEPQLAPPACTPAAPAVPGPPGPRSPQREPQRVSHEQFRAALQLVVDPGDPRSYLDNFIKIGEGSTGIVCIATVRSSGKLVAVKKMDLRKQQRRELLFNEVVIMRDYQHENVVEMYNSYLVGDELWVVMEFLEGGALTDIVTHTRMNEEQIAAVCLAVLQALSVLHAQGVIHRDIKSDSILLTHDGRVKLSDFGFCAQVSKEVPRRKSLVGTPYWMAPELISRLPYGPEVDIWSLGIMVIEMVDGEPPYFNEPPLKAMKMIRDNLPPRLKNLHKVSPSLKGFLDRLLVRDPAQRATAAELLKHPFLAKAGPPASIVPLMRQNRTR
UniProt P68400, whole entry: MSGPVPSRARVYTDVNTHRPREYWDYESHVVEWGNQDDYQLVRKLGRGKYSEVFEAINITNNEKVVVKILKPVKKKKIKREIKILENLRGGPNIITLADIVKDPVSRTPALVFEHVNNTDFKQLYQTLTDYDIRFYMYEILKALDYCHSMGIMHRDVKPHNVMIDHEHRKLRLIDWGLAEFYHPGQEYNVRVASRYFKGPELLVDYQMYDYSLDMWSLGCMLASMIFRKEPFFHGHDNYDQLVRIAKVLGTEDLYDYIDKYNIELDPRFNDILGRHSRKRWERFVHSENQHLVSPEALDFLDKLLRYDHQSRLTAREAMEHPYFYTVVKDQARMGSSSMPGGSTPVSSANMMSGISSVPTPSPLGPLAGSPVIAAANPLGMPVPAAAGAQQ

Key:
MAP3K8 (COT) = MAP3K8 (COT) (Homo sapiens, UniProt P41279); assay: Z'-LYTE kinase selectivity assay MAP3K8; conditions: 1 μM
CHEK1 (CHK1) = CHEK1 (CHK1) (Homo sapiens, UniProt O14757); assay: Z'-LYTE kinase selectivity assay CHEK1; conditions: 1 μM
[1] = system: TC-71 (EWING'S sarcoma) cells; assay: Cell proliferation assay TC-71 (Alamar Blue); conditions: read-out: TC71 EC50; anti-proliferative effect, TC-71 cells, 72 h
GSK3B (GSK3 beta) = GSK3B (GSK3 beta) (Homo sapiens, UniProt P49841); assay: Z'-LYTE kinase selectivity assay GSK3B; conditions: 1 μM
CSNK1A1 (CK1 alpha 1) = CSNK1A1 (CK1 alpha 1) (Homo sapiens, UniProt P48729); assay: Z'-LYTE kinase selectivity assay CSNK1A1; conditions: 1 μM
LCK = LCK (Homo sapiens, UniProt P06239); assay: Z'-LYTE kinase selectivity assay LCK; conditions: 1 μM
CAMK2D (CaMKII delta) = CAMK2D (CaMKII delta) (Homo sapiens, UniProt Q13557); assay: Z'-LYTE kinase selectivity assay CAMK2D; conditions: 1 μM
NEK2 = NEK2 (Homo sapiens, UniProt P51955); assay: Z'-LYTE kinase selectivity assay NEK2; conditions: 1 μM
FGFR1 = FGFR1 (Homo sapiens, UniProt P11362); assay: Z'-LYTE kinase selectivity assay FGFR1; conditions: 1 μM
ABL1 = ABL1 (Homo sapiens, UniProt P00519); assay: Z'-LYTE kinase selectivity assay ABL1; conditions: 1 μM
MAPK14 (p38 alpha) = MAPK14 (p38 alpha) (Homo sapiens, UniProt Q16539); assay: Z'-LYTE kinase selectivity assay MAPK14; conditions: 1 μM
SRPK2 = SRPK2 (Homo sapiens, UniProt P78362); assay: Z'-LYTE kinase selectivity assay SRPK2; conditions: 1 μM
STK6 (AURKA (Aurora A)) = STK6 (AURKA (Aurora A)) (Homo sapiens, UniProt O14965); assay: Z'-LYTE kinase selectivity assay STK6; conditions: 1 μM
MAPKAPK2 = MAPKAPK2 (Homo sapiens, UniProt P49137); assay: Z'-LYTE kinase selectivity assay MAPKAPK2; conditions: 1 μM
AMPK A1/B1/G1 = AMPK A1/B1/G1 (Homo sapiens, UniProt Q13131); assay: Z'-LYTE kinase selectivity assay AMPK A1/B1/G1; conditions: 1 μM
ROCK2 = ROCK2 (Homo sapiens, UniProt O75116); assay: Z'-LYTE kinase selectivity assay ROCK2; conditions: 1 μM
EGFR (ErbB1) = EGFR (ErbB1) (Homo sapiens, UniProt P00533); assay: Z'-LYTE kinase selectivity assay EGFR; conditions: 1 μM
AKT2 (PKB beta) = AKT2 (PKB beta) (Homo sapiens, UniProt P31751); assay: Z'-LYTE kinase selectivity assay AKT2; conditions: 1 μM
CDK2/cyclin A = CDK2/cyclin A (Homo sapiens, UniProt P24941); assay: Z'-LYTE kinase selectivity assay CDK2/cyclin A; conditions: 1 μM
EPHB2 = EPHB2 (Homo sapiens, UniProt P29323); assay: Z'-LYTE kinase selectivity assay EPHB2; conditions: 1 μM
ACVR1B (ALK4) = ACVR1B (ALK4) (Homo sapiens, UniProt P36896); assay: Z'-LYTE kinase selectivity assay ACVR1B; conditions: 1 μM
PDK1 Direct = PDK1 Direct (Homo sapiens, UniProt O15530); assay: Z'-LYTE kinase selectivity assay PDK1; conditions: 1 μM
RAF1 (cRAF) Y340D Y341D = RAF1 (cRAF) Y340D Y341D (Homo sapiens, UniProt P04049, Y340D/Y341D); assay: Z'-LYTE kinase selectivity assay RAF1; conditions: 1 μM
MAPK8 (JNK1) = MAPK8 (JNK1) (Homo sapiens, UniProt P45983); assay: Z'-LYTE kinase selectivity assay MAPK8; conditions: 1 μM
MAPK9 (JNK2) = MAPK9 (JNK2) (Homo sapiens, UniProt P45984); assay: Z'-LYTE kinase selectivity assay MAPK9; conditions: 1 μM
FRAP1 (mTOR) = FRAP1 (mTOR) (Homo sapiens, UniProt P42345); assay: Z'-LYTE kinase selectivity assay FRAP1 (mTOR); conditions: 1 μM
MAP2K1 (MEK1) = MAP2K1 (MEK1) (Homo sapiens, UniProt Q02750); assay: Z'-LYTE kinase selectivity assay MAP2K1; conditions: 1 μM
PAK4 = PAK4 (Homo sapiens, UniProt O96013); assay: Z'-LYTE kinase selectivity assay PAK4; conditions: 1 μM
[2] = system: HCT 116 (colorectal carcinoma) cells; assay: Cell proliferation assay HCT 116 (Alamar Blue); conditions: for cellular potency on HCT 116 colorectal cancer cells (in words): HCT 116, proliferation independent from IGF-1R signaling; for pEC50: read-out: HCT 116 EC50, anti-proliferative effect, HCT 116 cells (negative control line), 72 h
STK3 (MST2) = STK3 (MST2) (Homo sapiens, UniProt Q13188); assay: Z'-LYTE kinase selectivity assay STK3; conditions: 1 μM
MYLK2 (skMLCK) = MYLK2 (skMLCK) (Homo sapiens, UniProt Q9H1R3); assay: Z'-LYTE kinase selectivity assay MYLK2; conditions: 1 μM
TBK1 = TBK1 (Homo sapiens, UniProt Q9UHD2); assay: Z'-LYTE kinase selectivity assay TBK1; conditions: 1 μM
[3] = target: standard panel of 30 kinases; assay: Kinase selectivity panel (SelectScreen Z'-LYTE), number of kinases inhibited; conditions: count out of 30 kinases
CSNK2A1 (CK2 alpha 1) = CSNK2A1 (CK2 alpha 1) (Homo sapiens, UniProt P68400); assay: Z'-LYTE kinase selectivity assay CSNK2A1; conditions: 1 μM
PRKACA (PKA) = PRKACA (PKA) (Homo sapiens, UniProt P17612); assay: Z'-LYTE kinase selectivity assay PRKACA; conditions: 1 μM

In the case of COCCN1CCN(CCn2ccc(Nc3ncc4c(n3)-c3c(nn(C)c3-c3ccccc3)CC4)n2)CC1, the MAP3K8 % inhibition (MAP3K8 (COT)) was 78%, the CHEK1 % inhibition (CHEK1 (CHK1)) was 28% and the pEC50 [1] was 8.28. It also gave a GSK3B % inhibition (GSK3B (GSK3 beta)) of 33%, a CSNK1A1 % inhibition (CSNK1A1 (CK1 alpha 1)) of 11% and an LCK % inhibition (LCK) of 86%. The CAMK2D % inhibition (CAMK2D (CaMKII delta)) was 55%, the NEK2 % inhibition (NEK2) was 11% and the FGFR1 % inhibition (FGFR1) was 50%. It also gave an ABL1 % inhibition (ABL1) of 24%, an MAPK14 % inhibition (MAPK14 (p38 alpha)) of 11% and an SRPK2 % inhibition (SRPK2) of 7%. The “STK6 (Aur A) % inhibition” value (STK6 (AURKA (Aurora A))) was 76%, the MAPKAPK2 % inhibition (MAPKAPK2) was 9% and the “AMPK A1B1G1 % inhibition” value (AMPK A1/B1/G1) was 52%. The ROCK2 % inhibition (ROCK2) was −18%, the EGFR % inhibition (EGFR (ErbB1)) was 55% and the AKT2 % inhibition (AKT2 (PKB beta)) was 8%. The CDK2/CYCLINA % inhibition (CDK2/cyclin A) was 77%, the EPHB2 % inhibition (EPHB2) was 72% and the ACVR1B % inhibition (ACVR1B (ALK4)) was −16%. It also gave a PDK1 % inhibition (PDK1 Direct) of 17%, an RAF1 % inhibition (RAF1 (cRAF) Y340D Y341D) of 90% and an MAPK8 % inhibition (MAPK8 (JNK1)) of 61%. The MAPK9 % inhibition (MAPK9 (JNK2)) was 59%, the “FRAP1 (MTOR) % inhibition” value (FRAP1 (mTOR)) was 6% and the MAP2K1 % inhibition (MAP2K1 (MEK1)) was 93%. The PAK4 % inhibition (PAK4) was 61%, the “cellular potency on HCT 116 colorectal cancer cells (in words)” value (from here on “cellular potency”) [2] was “relatively high cellular potency” and the pEC50 [2] was 6.29. For the same compound, the STK3 % inhibition (STK3 (MST2)) was −15%, the MYLK2 % inhibition (MYLK2 (skMLCK)) was 36% and the TBK1 % inhibition (TBK1) was 78%. For the same compound, the “# kinases inhibited >50% @ 1 μM” value [3] was 12/30, the CSNK2A1 % inhibition (CSNK2A1 (CK2 alpha 1)) was 29% and the PRKACA % inhibition (PRKACA (PKA)) was 18%.
In the case of CN(C)C1CCN(CCn2ccc(Nc3ncc4c(n3)-c3c(nn(C)c3-c3ccccc3)CC4)n2)CC1, the pEC50 [1] was 8.44, the “cellular potency” value [2] was “relatively high cellular potency” and the pEC50 [2] was 6.53.
For Cn1nc2c(c1-c1ccccc1)-c1nc(Nc3ccn(CCN4CCN(CCO)CC4)n3)ncc1CC2, the MAP3K8 % inhibition (MAP3K8 (COT)) was 81%, the CHEK1 % inhibition (CHEK1 (CHK1)) was 34% and the pEC50 [1] was 8.01. It also gave a GSK3B % inhibition (GSK3B (GSK3 beta)) of 32%, a CSNK1A1 % inhibition (CSNK1A1 (CK1 alpha 1)) of 14% and an LCK % inhibition (LCK) of 89%. For the same compound, the CAMK2D % inhibition (CAMK2D (CaMKII delta)) was 59%, the NEK2 % inhibition (NEK2) was 18% and the FGFR1 % inhibition (FGFR1) was 59%. The ABL1 % inhibition (ABL1) was 44%, the MAPK14 % inhibition (MAPK14 (p38 alpha)) was 46% and the SRPK2 % inhibition (SRPK2) was 11%. The “STK6 (Aur A) % inhibition” value (STK6 (AURKA (Aurora A))) was 72%, the MAPKAPK2 % inhibition (MAPKAPK2) was 12% and the “AMPK A1B1G1 % inhibition” value (AMPK A1/B1/G1) was 62%. For the same compound, the ROCK2 % inhibition (ROCK2) was −11%, the EGFR % inhibition (EGFR (ErbB1)) was 74% and the AKT2 % inhibition (AKT2 (PKB beta)) was 7%. It also gave a CDK2/CYCLINA % inhibition (CDK2/cyclin A) of 84%, an EPHB2 % inhibition (EPHB2) of 77% and an ACVR1B % inhibition (ACVR1B (ALK4)) of −14%. For the same compound, the PDK1 % inhibition (PDK1 Direct) was 20%, the RAF1 % inhibition (RAF1 (cRAF) Y340D Y341D) was 92% and the “FRAP1 (MTOR) % inhibition” value (FRAP1 (mTOR)) was 15%. For the same compound, the MAP2K1 % inhibition (MAP2K1 (MEK1)) was 96%, the PAK4 % inhibition (PAK4) was 60% and the “cellular potency” value [2] was “relatively high cellular potency”. For the same compound, the pEC50 [2] was 6.20, the STK3 % inhibition (STK3 (MST2)) was −4% and the MYLK2 % inhibition (MYLK2 (skMLCK)) was 48%. For the same compound, the TBK1 % inhibition (TBK1) was 81%, the “# kinases inhibited >50% @ 1 μM” value [3] was 13/30 and the CSNK2A1 % inhibition (CSNK2A1 (CK2 alpha 1)) was 27%. It also gave a PRKACA % inhibition (PRKACA (PKA)) of 17%.
